Legend:
H3K4me3:H3 [1] = test: Tissue PD (H3K4me3:H3 by ELISA), cynomolgus monkey; format: in vivo; conditions: monkeys; p.o. once daily for seven days; 24 hours after last dose
Description: Histones were enriched from tissue and PBMC samples using the AbCam total histone extraction kit (Cambridge, UK; ab113476) according to the manufacturer’s protocol after cell/tissue dissociation with an IKA T10 TURRAX homogenizer (Wilmington, NC; EW-04720-50). Histones were enriched from 500,000 to 750,000 PHH. PHH monolayers were washed once with cold (4°C) 1X DPBS (Dulbecco’s phosphate buffered saline; 21-031-CV, Corning Inc.). Cold triton extraction buffer (TEB): 1X DPBS, 0.5% triton X-100 (Sigma-Aldrich, T9284), 2 mM phenylmethylsulfonyl fluoride (PMSF; Thermo Fisher Scientific, 36978), was added to the cell monolayer at a density of 1 x 10^6 cells/mL. After 10-minute incubation in TEB at 4°C, the cell monolayer was scraped and cells were pelleted by centrifuged at 1200 rpm at 4°C for 10 minutes. The cell pellets were washed again in TEB by centrifugation at 1200 rpm at 4°C for 10 minutes. […]
An indirect ELISA assay was used to measure amounts of H3K4me3 relative to total H3 (H3K4me3:H3) extracted from tissue, PBMC, or PHH samples. Amounts of H3, H3K4me3, and non-specific background from the secondary antibody (blank absorbance) were measured for each sample in independent ELISA wells. […] Absorbance of each well was measured at 450 nm within five minutes using a SpectraMax Plus 384 Microplate Reader (Molecular Devices; PLUS 384).

HBV GTC = test: GS-5801 antiviral activity in PXB hepatocytes in vitro; format: cell-based, Hepatitis B virus; conditions: GTC HBV-infected hepatocytes; treated every 3–4 days; Day 21
Description: Hepatocytes were isolated by two-step collagenase perfusion from PXB mice as described. Hepatocytes were resuspended in DMEM medium (Thermo Fisher Scientific) containing 2% FBS (Biosera, Kansas City, MO), 20 mM HEPES (Thermo Fisher Scientific), 44 mN NaHCO3 (Wako Chemicals, Richmond, VA), 100 IU/mL penicillin (Thermo Fisher Scientific), and 100 ug/mL streptomycin (Thermo Fisher Scientific) and plated at a density of 4 x 10^5 cells/well of a BioCoat Collagen I 24 well plate (Corning). […] Medium containing fresh compound was replaced every 3 days for a total of six doses of compound and levels of extracellular HBsAg and HBeAg were measured on Day 21.
Quantification of HBsAg and HBeAg levels was performed by SRL Inc. (Tokyo, Japan) based on the Chemiluminescent immunoassay (CLIA) using an […] instrument and the […] […]

H3K4me3:H3 [2] = test: Global H3K4me3:H3 ratio by ELISA in HBV-infected PHH; format: cell-based, human
Description: For the continuous dose experiment, cells received one dose of GS-5801 on days 0, 3, 6, and 10 and medium was not replenished until the next dose day. For the pulse dose regimen, medium containing compound was removed after two hours incubation and replaced with fresh maintenance medium every three to four days. Cells in the pulse dose experiment received only one dose of compound (Day = 0). Histones were enriched from tissue and PBMC samples using the AbCam total histone extraction kit (Cambridge, UK; ab113476) according to the manufacturer’s protocol after cell/tissue dissociation with an IKA T10 TURRAX homogenizer (Wilmington, NC; […] Histones were enriched from 500,000 to 750,000 PHH. PHH monolayers were washed once with cold (4°C) 1X DPBS (Dulbecco’s phosphate buffered saline; 21-031-CV, Corning Inc.). Cold triton extraction buffer (TEB): 1X DPBS, 0.5% triton X-100 (Sigma-Aldrich, T9284), 2 mM phenylmethylsulfonyl fluoride (PMSF; Thermo Fisher Scientific, 36978), was added to the cell monolayer at a density of 1 x 10^6 cells/mL. After 10-minute incubation in TEB at 4°C, the cell monolayer was scraped and cells were pelleted by centrifuged at 1200 rpm at 4°C for 10 minutes. The cell pellets were washed again in TEB by centrifugation at 1200 rpm at 4°C for 10 minutes. The resulting cell pellet was re-suspended in cold (4°C) 0.2 Normal hydrochloric acid (HCl; Sigma-Aldrich, 343102) at a density of ~ 1 x 10^7 cells/mL and incubated at 4°C for 30 minutes. After incubation, HCl extractions were pelleted by centrifugation at 1200 rpm for 5 minutes at 4°C and supernatant containing the enriched histones was collected. Total protein concentration of all samples following histone enrichment was determined using a bicinchoninic acid (BCA) assay (Thermo Fisher Scientific; 23225). […] Absorbance of each well was measured at 450 nm within five minutes using a SpectraMax Plus 384 Microplate Reader (Molecular Devices; PLUS 384).

H3K4me3:H3 [3] = test: Liver H3K4me3:H3 by ELISA in HBV-infected humanized mice; format: in vivo, uPA-SCID mice with humanized livers; conditions: Day 56
Description: The in vivo and in vitro hepatocyte infection model portions of the study were performed by PhoenixBio (Higashi-Hiroshima, Japan). […] Mice were infected with HBV GTC virus (PhoenixBio; PBB004, Lot #160205) and had serum HBV titer levels greater than 1.0E+08 copies/mL seven days prior to study initiation. HBV-infected mice were treated once daily (p.o.) for seven days (Day 0–6) with deionized water for acclimation. Mice (n = 8 per treatment group) received vehicle (deionized water), 30 mg/kg, or 100 mg/kg of GS-5801 p.o. once daily on Days 7 to 13, Days 21 to 27, Days 35 to 41, and Days 49 to 55. Fifty μL of blood was collected from animals under isoflurane anesthesia via the retro-orbital plexus/sinus and centrifuged for serum collection for HBsAg and HBV DNA measurements described below. At termination of study (Day 56), 100–200 mg of tissue was harvested from the left lateral liver lobe of all animals. […]
An indirect ELISA assay was used to measure amounts of H3K4me3 relative to total H3 (H3K4me3:H3) extracted from tissue, PBMC, or PHH samples. Amounts of H3, H3K4me3, and non-specific background from the secondary antibody (blank absorbance) were measured for each sample in independent ELISA wells. […]

H3K4me3:H3 [4] = test: Tissue PD (H3K4me3:H3 by ELISA), rat; format: in vivo
Description: Male Wistar Han rats (n = 3 per dose group) were dosed p.o. once daily for seven days with GS-5801 at 10, 30, or 100 mg/kg and sacrificed 24 hours after the last dose. A second group of male Wistar Han rats (n = 3 per dose group) were dosed p.o. once daily for seven days with GS-5801 at 10, 30, or 100 mg/kg and taken off drug for seven days before animals were sacrificed.
Histones were enriched from tissue and PBMC samples using the AbCam total histone extraction kit (Cambridge, UK; ab113476) according to the manufacturer’s protocol after cell/tissue dissociation with an IKA T10 TURRAX homogenizer (Wilmington, NC; EW-04720-50). Histones were enriched from 500,000 to 750,000 PHH. PHH monolayers were washed once with cold (4°C) 1X DPBS (Dulbecco’s phosphate buffered saline; 21-031-CV, Corning Inc.). Cold triton extraction buffer (TEB): 1X DPBS, 0.5% triton X-100 (Sigma-Aldrich, T9284), 2 mM phenylmethylsulfonyl fluoride (PMSF; Thermo Fisher Scientific, 36978), was added to the cell monolayer at a density of 1 x 10^6 cells/mL. After 10-minute incubation in TEB at 4°C, the cell monolayer was scraped and cells were pelleted by centrifuged at 1200 rpm at 4°C for 10 minutes. The cell pellets were washed again in TEB by centrifugation at 1200 rpm at 4°C for 10 minutes. The resulting cell pellet was re-suspended in cold (4°C) 0.2 Normal hydrochloric acid (HCl; Sigma-Aldrich, 343102) at a density of ~ 1 x 10^7 cells/mL and incubated at 4°C for 30 minutes. After incubation, HCl extractions were pelleted by centrifugation at 1200 rpm for 5 minutes at 4°C and supernatant containing the enriched histones was collected.
An indirect ELISA assay was used to measure amounts of H3K4me3 relative to total H3 (H3K4me3:H3) extracted from tissue, PBMC, or PHH samples. Amounts of H3, H3K4me3, and non-specific background from the secondary antibody (blank absorbance) were measured for each sample in independent ELISA wells. Briefly, each histone extraction from tissue or PBMC lysates was diluted in 50 mM Na2CO3 (Sigma-Aldrich; 223484), pH 9.5 coating buffer and 50 μl of each diluted sample was added to 384-well plates (Greiner, Kremsmünster, Austria; 781061) in duplicate. A coating concentration for tissue and PBMC histone extracts was used such that the H3 and H3K4me3 OD measurements were in the linear range for the H3 and H3K4me3 antibodies. After plates were incubated overnight at 4°C to allow for coating of histone samples, plates were blocked for one hour at room temperature (RT) in 100 μl 5% skimmed milk (Fluka; 70166)/1X DPBS (Gibco; 70011–044) % w/v solution. Plates were washed three times with 0.1% Tween-20 (Amresco; 0777)/1 X DPBS % v/v solution (DPBST) and 50 μl/well of 0.05 μg/ml H3 (Sino Biological; 11231-RP02) or 0.5 μg/ml H3K4me3 (Millipore; 07473) primary antibodies diluted in 1X DPBS were added to the ELISA plates and incubated for one hour at RT. After primary antibody incubation, plates were washed 3 times with 100 μl/well PBST and 50 μl/well of an AbCam secondary antibody (ab137914) diluted to 0.05 μg/ml in 1X PBS was added to the ELISA plates and incubated for one hour at RT. Plates were washed five times with 100 μl/well DPBST and 50 μl/well 3,3′,5,5′-tetramethylbenzidine (TMB) substrate solution (Sigma; T0440) was added to each plate. […] Absorbance of each well was measured at 450 nm within five minutes using a SpectraMax Plus 384 Microplate Reader (Molecular Devices; PLUS 384).

For `CCOC(=O)c1ccnc(CNCC(=O)N(CC)CCN(C)C)c1` [GS-5801], the “H3K4me3:H3 ratio in liver versus lung, kidney, PBMCs” value (H3K4me3:H3 [1]) was “increased levels of the H3K4me3:H3 ratio in the liver compared to lung, kidney, or PBMCs at most doses tested”, the “HBsAg and HBeAg levels” value (HBV GTC) was “reduction of HBsAg and HBeAg levels” and the “H3K4me3:H3 fold increase compared to vehicle treated PHH” value (H3K4me3:H3 [2]; continuous dosing 10 μM, apparent saturation six days after initiation of dosing) was 4.8 fold. The “H3K4me3:H3 ratio associated with near 100% HBeAg inhibition on day 12” value (H3K4me3:H3 [2]; short pulse treatment, 0.016–10 μM) was ~ 3, the “H3K4me3:H3 fold increase” value (H3K4me3:H3 [2]; single two-hour pulse dose 10 μM, day three) was 2.8 fold and the “liver H3K4me3:H3 fold increase compared to vehicle-treated animals” value (H3K4me3:H3 [3]; 30 mg/kg) was 2.9 fold. For the same molecule, the “liver H3K4me3:H3 fold increase compared to vehicle-treated animals” value (H3K4me3:H3 [3]; 100 mg/kg) was 3.3 fold, the “liver H3K4me3:H3 fold increase” value (H3K4me3:H3 [4]; Sprague Dawley rats, 10 or 30 mg/kg once daily for five days) was 4.2- to 4.3 fold and the “liver H3K4me3:H3 fold increase compared to vehicle-treated animals” value (H3K4me3:H3 [4]; Wistar Han rats, 10, 30, or 100 mg/kg p.o. once daily for seven days (dosing phase)) was 4.6- to 5.2 fold. For the same molecule, the “liver H3K4me3:H3 fold increase compared to vehicle treated animals” value (H3K4me3:H3 [4]; rats, 100 mg/kg dose group, seven days off treatment (recovery phase)) was 2.7 fold, the “liver H3K4me3:H3, fold of vehicle animals” value (H3K4me3:H3 [4]; rats, 10 and 30 mg/kg dose groups, seven days off treatment (recovery phase)) was at most 1.6 fold and the “H3K4me3:H3 ratio in liver versus lung, kidney, PBMCs” value (H3K4me3:H3 [4]; rats, p.o. once daily for five days, 24 hours after last dose) was “increased levels of the H3K4me3:H3 ratio in the liver compared to lung, kidney, or PBMCs at most doses tested”.
